Laboratory results taken from patent US8614223B2, “Pyrimidine hydroxy amide compounds as protein deacetylase inhibitors and methods of use thereof” (Acetylon Pharmaceuticals, Inc., priority 2010, dated 2013).

By UniProt entry, the sequences of proteins in these tests, tags left out. Where a name states a change or a piece, a line headed by the entry shows the natural chain unless it says otherwise.
UniProt Q92769, whole entry: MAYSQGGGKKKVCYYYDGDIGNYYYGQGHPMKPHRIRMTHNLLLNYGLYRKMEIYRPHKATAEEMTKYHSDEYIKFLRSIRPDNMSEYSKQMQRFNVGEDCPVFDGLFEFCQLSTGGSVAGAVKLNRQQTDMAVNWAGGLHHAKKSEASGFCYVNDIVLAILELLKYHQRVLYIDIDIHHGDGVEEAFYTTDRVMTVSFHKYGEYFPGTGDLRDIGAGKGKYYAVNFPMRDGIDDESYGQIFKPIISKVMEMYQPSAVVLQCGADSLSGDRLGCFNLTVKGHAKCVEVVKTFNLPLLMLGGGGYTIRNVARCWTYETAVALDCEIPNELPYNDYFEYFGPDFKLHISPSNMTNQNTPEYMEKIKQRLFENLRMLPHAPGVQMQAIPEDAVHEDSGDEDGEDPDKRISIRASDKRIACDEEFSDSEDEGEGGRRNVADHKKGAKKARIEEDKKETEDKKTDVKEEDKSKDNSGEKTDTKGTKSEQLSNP
UniProt Q13547, whole entry: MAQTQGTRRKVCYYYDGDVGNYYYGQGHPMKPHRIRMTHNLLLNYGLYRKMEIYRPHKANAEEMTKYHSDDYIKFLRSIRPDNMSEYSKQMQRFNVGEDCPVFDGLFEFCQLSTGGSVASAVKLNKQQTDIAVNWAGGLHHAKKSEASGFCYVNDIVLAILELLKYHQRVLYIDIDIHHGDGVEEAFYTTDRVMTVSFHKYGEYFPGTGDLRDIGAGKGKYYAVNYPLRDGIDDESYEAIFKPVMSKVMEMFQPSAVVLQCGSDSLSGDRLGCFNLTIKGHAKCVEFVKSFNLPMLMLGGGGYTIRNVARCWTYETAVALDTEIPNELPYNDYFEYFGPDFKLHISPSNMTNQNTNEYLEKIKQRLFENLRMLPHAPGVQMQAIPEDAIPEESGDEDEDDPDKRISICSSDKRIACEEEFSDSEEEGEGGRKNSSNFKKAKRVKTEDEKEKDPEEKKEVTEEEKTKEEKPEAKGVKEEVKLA
UniProt O15379: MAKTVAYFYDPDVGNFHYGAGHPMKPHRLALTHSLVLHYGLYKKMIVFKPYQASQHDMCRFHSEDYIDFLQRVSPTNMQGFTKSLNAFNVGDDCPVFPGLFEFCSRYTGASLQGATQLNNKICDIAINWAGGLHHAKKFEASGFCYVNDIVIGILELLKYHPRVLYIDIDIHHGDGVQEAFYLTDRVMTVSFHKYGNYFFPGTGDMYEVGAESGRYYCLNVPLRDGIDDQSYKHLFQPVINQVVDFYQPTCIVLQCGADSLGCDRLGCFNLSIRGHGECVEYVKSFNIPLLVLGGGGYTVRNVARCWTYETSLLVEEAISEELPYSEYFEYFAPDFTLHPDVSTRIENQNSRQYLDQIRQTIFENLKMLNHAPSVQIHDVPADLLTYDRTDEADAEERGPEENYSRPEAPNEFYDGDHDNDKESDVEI

Key:
HDAC2 = HDAC2 (Homo sapiens (Human), UniProt Q92769); experiment: HDAC enzyme assay, HDAC2; settings: ratio HDAC2/HDAC6
HDAC1 = HDAC1 (Homo sapiens (Human), UniProt Q13547); experiment: HDAC enzyme assay, HDAC1; settings: ratio HDAC1/HDAC6
HDAC3 = HDAC3 (Homo sapiens (Human), UniProt O15379); experiment: HDAC enzyme assay, HDAC3; settings: ratio HDAC3/HDAC6

HDAC2 fold over HDAC6 IC50 (selectivity for HDAC6) (HDAC2) | HDAC1 fold over HDAC6 IC50 (selectivity for HDAC6) (HDAC1) | HDAC3 fold over HDAC6 IC50 (selectivity for HDAC6) (HDAC3) | SMILES
(154x) | (99.5x) | (138.1x) | COc1cc(F)ccc1CNc1ncc(C(=O)NO)cn1 [Compound 49]
(28.4x) | (21.4x) | (31.2x) | O=C(NO)c1cnc(NCc2ccc3c(c2)OCO3)nc1 [Compound 46]
(370x) | (202.9x) | (511.4x) | CC(C)(Nc1ncc(C(=O)NO)cn1)c1ccccc1F [Compound 71]
